Assay results as given in patent US20220241422A1, “DRUG DELIVERY COMPOSITION AND PHARMACEUTICAL COMPOSITION” (Nihon University, priority 2019, published 2022).

Experiment: Nasal administration test for RI-labeled dextran/PEG-PCL-Tat: distribution efficiency in tissues
Conditions: 60 minutes after nasal administration; for Relative ratio: drug solution alone taken as 1

ID %/g tissue (distribution efficiency of RI-labeled dextran) (Forebrain part): 0.159 ID %/g tissue
Relative ratio (Forebrain part): 1
ID %/g tissue (distribution efficiency of RI-labeled dextran) (Hindbrain part): 0.130 ID %/g tissue
Relative ratio (Hindbrain part): 1
ID %/g tissue (distribution efficiency of RI-labeled dextran) (Olfactory bulb): 2.104 ID %/g tissue
Relative ratio (Olfactory bulb): 1
ID %/g tissue (distribution efficiency of RI-labeled dextran) (Spinal cord): 0.042 ID %/g tissue
Relative ratio (Spinal cord): 1
ID %/g tissue (distribution efficiency of RI-labeled dextran) (Whole brain): 0.177 ID %/g tissue
Relative ratio (Whole brain): 1
Substance: [^14C]-Dextran [Drug solution alone]
